# Literature values in US7235142B2, “Non-toxic corrosion-protection rinses and seals based on cobalt” (University of Dayton, priority 2002, dated 2007).
# Details: pH 7
substance,measurement,value
Ammonium fluorogermanate,Solubility in Water,~1 × 10^0^ mole/L
